In US20070213291A1, “Therapeutically useful synthetic oligonucleotides” (priority 1999, published 2007):

How the values were obtained:
Format in all cases: cell-based
[1] = system: Jurkat human leukemia T cells; experiment: Inhibition of Jurkat human leukemia T cell proliferation (MTT reduction); conditions: 100 μg/ml sequence, 48 h, 2.5×10^5 cells/ml
Method: (§1) Cells were seeded in 6 (1 ml/well), 24 (0.5 ml/well) or 96 (0.1 ml/well) well flat-bottom microplates and were maintained at 37° C. in a 5% CO2 atmosphere. Unless stated otherwise, 2.5×10^5 cells/ml were incubated with 0 μg/ml (control) and 100 μg/ml (treated) of 2 to 45 base sequences containing A, C, G and T for 48 h.
MTT was measured at a wavelength of 570 nm using a multiplate spectrophotometer reader (ELX800, Bio-TEK Instruments Inc., Winooski, Vt.).
Jurkat human leukemia T cells are an atypical multi-drug resistant human suspension tumor cell model.

[2] = system: THP-1 human acute monocytic leukemia cells; experiment: Cytokine production by THP-1 cells (ELISA); conditions: THP-1, 1×10^6 cells, 100 μg/ml, 48 h
Method: Unless stated otherwise, 1×10^6 cells were incubated with 100 μg/ml of each of the sequences tested for 48 h at 37° C. in 5% CO2. Production of cytokines IL-6, IL-10, IL-12, IL-1beta and TNF-alpha was determined in pg/ml in 100 μl of culture supernatant using the appropriate commercial ELISA (BioSource, Camarillo Calif.). The IL-12 ELISA measures both IL-12 p70 complex and free p40 subunit. Results are expressed as the “fold” (×) increase in cytokine production by treated cells compared to control cells.
THP-1 human acute monocytic leukemia cells were incubated with 2, 3, 6, 9, 12, 14, 15 and 18 base GT sequences and production of the cyotkine IL-6 was determined (Table 35).
THP-1 human acute monocytic leukemia cells were incubated with 6 base GT, AG, CG, GG, AGT and CGT sequences and production of the cytokines IL-12 and IL-6 was determined (Table 36).
THP-1 human acute monocytic leukemia cells were incubated with 6 base GT sequences, having either an oxygen (phosphodiester) or a sulfur (phosphorothioate) as the nonbridging atom on the phosphate groups and production of the cytokine IL-12 was determined (Table 39).
THP-1 human acute monocytic leukemia cells were incubated with 6 base GT SEQ ID NO:25, having either an oxygen (phosphodiester) or a sulfur (phosphorothioate) as the nonbridging atom on the phosphate groups and production of the cytokine IL-12 was determined (Table 40).

[3] = system: SK-OV-3 human ovarian cancer cells; experiment: Inhibition of SK-OV-3 cell proliferation (MTT); conditions: 100 μg/ml, 48 h, 5×10^5 cells/ml
Method: as §1
(§2) Cell proliferation was measured using dimethylthiazol-diphenyl-tetrazolium (MTT) reduction (Mosman et al. J. Immunol. Methods 65:55, 1983). MTT was measured at a wavelength of 570 nm using a multiplate spectrophotometer reader (ELX800, Bio-TEK Instruments Inc., Winooski, Vt.).
SK-OV-3 ovarian cancer cells are a p53 mutated, p21/waf-1/Cip deleted, p15^ink4B deleted, p16^Ink4 deleted, metastatichuman solid tumor model. SK-OV-3 cells (5×10^5 cells/ml) were incubated with 2, 6 and 18 base GT sequences (Table 12).

[4] = system: Jurkat human leukemia T cells; experiment: Cell cycle stage in Jurkat cells (propidium iodide flow cytometry); conditions: 24 h, 100 μg/ml
Method: (§3) Cell cycle stage was determined using a CYCLETES™ PLUS DNA commercial kit (Becton Dickinson). Briefly, nuclei from cells were obtained by dissolving the cell membrane in a nonionic detergent, eliminating the cell cytoskeleton and nuclear proteins with trypsin, digesting the cellular RNA with RNase and stabilizing the nuclear chromatin with spermine. Propidium iodide was added to the cell nuclei and their fluorescence was analyzed in a flow cytometer equipped with electronic doublet discrimination capability (FACSCalibur, Becton Dickinson, San Jose, Calif.). Accumulation of cells in G0/G1, early S (SE), mid S (SM), late S (SL) or G2/M phases of the cell cycle was analyzed using MODFIT LT software (Verity Software House Inc., Topsham, Mass.).
(§4) Exponentially growing Jurkat human leukemia T cells (Table 28) and MCF-7 human breast cancer cells (5×10^5 cells/ml) (Table 29) were incubated for 24 h with 2, 6, 15, 18, 27 and 45 base sequences containing A, C, G and T. The cells were collected and centrifuged and cell cycle stage was determined.
Jurkat human cell leukemia T cells (1×10^6 cells/ml) were incubated for 24 h with 6 base GT SEQ ID NO:25, conplementary 6 base AC SEQ ID NO:79 and 6 base GT SEQ ID NO:25+6 base AC SEQ ID NO:79. GT SEQ ID NO:25 and AC SEQ ID NO:79 were hybridized by mixing the oligonucleotides (1:1) and heating for 10 minutes at 65° C. As controls, GT SEQ ID NO:25 and AC SEQ ID NO:79 were heated for 10 minutes at 65° C. (Table 30).

[5] = system: OVCAR-3 human ovarian cancer cells; experiment: Inhibition of OVCAR-3 cell proliferation (MTT); conditions: 100 μg/ml, 48 h, 5×10^5 cells/ml
Method: as §1, §2
OVCAR-3 ovarian cancer cells are a p53 mutated, p21/waf-1/Cip deleted, metastatic human solid tumor model. OVCAR-3 cells (5×10^5 cells/ml) were incubated with 2, 6 and 18 base GT sequences and with a 6 base AGT sequence (Table 11).

[6] = system: MCF-7 human breast cancer cells; experiment: Cell cycle stage in MCF-7 cells (propidium iodide flow cytometry); conditions: MCF-7, 5×10^5 cells/ml, 24 h
Method: as §3, §4

Substance	% INHIBITION of Jurkat human leukemia T cell proliferation [1]	↑ IL-6 (fold increase treated vs control cells) [2]	% INHIBITION of SK-OV-3 human ovarian cancer cell proliferation [3]	% of cells in phase: G0/G1 [4]	% of cells in phase: G2/M [4]	% of cells in phase: SE [4]	% of cells in phase: SL [4]	% of cells in phase: SM [4]	Arrest (cell cycle) [4]	% INHIBITION of OVCAR-3 human ovarian cancer cell proliferation [5]	% cells in phase: G0/G1 [6]	% cells in phase: G2/M [6]	% cells in phase: SE [6]	% cells in phase: SL [6]	% cells in phase: SM [6]	Arrest (cell cycle) [6]
SEQ ID NO:50 (DNA GT; chemistry not fully specified)	38%															
SEQ ID NO:51 (DNA TG; chemistry not fully specified)	50%	2.9x	18%	23.1%	0.0%	52.3%	9.8%	14.8%	End SE	23%	17.2%	17.9%	36.4%	14.1%	13.4%	End SE
